ChEMBL document CHEMBL1138891, “3-(4-Piperidinyl)indoles and 3-(4-piperidinyl)pyrrolo-[2,3-b]pyridines as ligands for the ORL-1 receptor” (Bioorg Med Chem Lett, 2006)

What was measured:
Homo sapiens [1] = organism: Homo sapiens; experiment: Selectivity for mu opioid receptor over ORL1 receptor
Homo sapiens [2] = organism: Homo sapiens; experiment: Selectivity for ORL1 receptor over kappa opioid receptor
Homo sapiens [3] = organism: Homo sapiens; experiment: Selectivity for ORL1 receptor over delta opioid receptor
Homo sapiens [4] = organism: Homo sapiens; experiment: Selectivity for ORL1 receptor over mu opioid receptor

Compound | Selectivity ratio (Homo sapiens [1]) | Selectivity ratio (Homo sapiens [2]) | Selectivity ratio (Homo sapiens [3]) | Selectivity ratio (Homo sapiens [4])
c1ccc(Oc2ccc(CN3CCC(c4c[nH]c5ncccc45)CC3)cc2)cc1 | 15 | – | – | –
Fc1ccc2c(C3=CCN(C4Cc5cccc6cccc4c56)CC3)c[nH]c2c1 (configuration not stated) | – | > 30 | > 30 | > 30
c1ccc2c(CN3CCC(c4c[nH]c5ncccc45)CC3)cccc2c1 | 2.4 | – | – | –
Cn1cc(C2CCN(C3Cc4cccc5cccc3c45)CC2O)c2cccnc21 (configuration not stated) | – | > 1000 | > 1000 | 67
c1cc2c3c(cccc3c1)C(N1CCC(c3c[nH]c4ncccc34)CC1)C2 (configuration not stated) | – | 690 | > 1000 | 98
Fc1ccc2[nH]cc(C3CCN(C4Cc5cccc6cccc4c56)CC3)c2c1 (configuration not stated) | – | 100 | – | 27
Cc1[nH]c2ccc(Cl)cc2c1C1CCN(C2Cc3cccc4cccc2c34)CC1 (configuration not stated) | – | 65 | – | 25
Fc1ccc2c(C3CCN(C4Cc5cccc6cccc4c56)CC3)c[nH]c2c1 (configuration not stated) | – | 100 | – | 17
